The entries are a selection whose mix differs from that of the whole data set. Some salts and complexes are drawn in separate pieces, as the source files them; their charges need not balance. Calls of active or inactive are those of the source.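 Rule for the calls: active = inhibition of at least 40% at 10 µM in the primary screen; inactive = the rest.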

The test system of this assay is intestinal alkaline phosphatase [Mus musculus]. Put plainly: mouse intestinal phosphatase enzyme inhibition – biochemical, luminescence, uHTS, primary screen (AID 2806).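 Note: plate controls were DMSO with enzyme for no effect and no enzyme wells for full effect.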 The following applies: purified mouse IAP, CDP-Star luminescence, 30 min; at 10 µM; active compounds read high.
As for `COc1ccc(OP(C)(=O)Nc2ccc(Br)cc2)cc1` (stereo not given), the inhibition was inactive: -9.3%.

For the compound `CCN(CC)CC(O)COC(=O)C(O)(c1ccccc1)C1CCCCC1` (stereo not given), the inhibition was inactive: -0.7%.

With `CCc1ccc(OP(C)(=O)Nc2cccnc2)cc1` (stereo not given), the inhibition was inactive: -6.8%.

Turning to `CP(=O)(Oc1ccccc1)N1CCOC1=O` (stereo not given), the inhibition is inactive: 8.5%.

Consider `O=C(OCCCN1CCCC1)C(O)(c1ccccc1)C1CCCCC1` (stereo not given), for which the inhibition is inactive: 9.9%.

Consider `COc1ccccc1OP(C)(=O)Nc1c(C)n(C)n(-c2ccccc2)c1=O` (stereo not given), for which the inhibition is inactive: 8.1%.

For `CP(=O)(Nc1ccc(Cl)cc1)Oc1ccc(F)cc1` (stereo not given), the inhibition was inactive: -3.4%.

`COc1ccccc1OP(C)(=O)Nc1ccccc1Br` (stereo not given): the inhibition was inactive: 3.9%.

Take `CC(C)(C)c1ccc(OP(C)(=O)O)cc1`: the inhibition was inactive: 0.5%.

Take `CN(C)C(=O)c1c([N+](=O)[O-])cc([N+](=O)[O-])cc1[N+](=O)[O-]`: the inhibition is inactive: 4.4%.

With `Nc1ccc2c(ccc3cccnc32)n1.O=[N+]([O-])c1cc([N+](=O)[O-])c(O)c([N+](=O)[O-])c1`, the inhibition was inactive: 6%.

Consider `CP(=O)(OC12CC3CC(CC(C3)C1)C2)OC12CC3CC(CC(C3)C1)C2`, for which the inhibition was inactive: 17.6%.

In the case of `CCOC(=O)c1ccc(NP(C)(=O)Oc2ccc(Cl)cc2)cc1` (stereo not given), the inhibition is inactive: -6.6%.

With `Cc1cc(C)cc(OP(C)(=O)Nc2cccc(C(F)(F)F)c2)c1` (stereo not given), the inhibition was inactive: 0.2%.

In the case of `COc1ccc(OP(C)(=O)Nc2ccccc2Br)cc1` (stereo not given), the inhibition was inactive: -8%.

Consider `COc1ccccc1OP(C)(=O)Nc1ccc(C)c(C)c1` (stereo not given), for which the inhibition is inactive: -0.8%.

On to `Cc1nc2ccc3ccccc3c2o1.O=[N+]([O-])c1cc([N+](=O)[O-])c(O)c([N+](=O)[O-])c1`, for which the inhibition was inactive: 5.2%.

For `CP(=O)(Nc1ccc(Cl)cc1Cl)Oc1ccccc1` (stereo not given), the inhibition is inactive: -18.7%.

In the case of `CP(=O)(OCCOc1ccccc1)OCCOc1ccccc1`, the inhibition was inactive: -12.1%.

`COc1ccccc1OP(C)(=O)Nc1ccc(Br)cc1` (stereo not given): the inhibition was inactive: -0.4%.

As to `CN(C)CCOC(=O)C(O)(c1ccccc1)C1CCCC1` (stereo not given), the inhibition was inactive: 3.7%.

For the compound `COc1ccc(OP(C)(=O)Nc2ccccn2)cc1` (stereo not given), the inhibition was inactive: -0.3%.

Regarding `Cc1c(NP(C)(=O)Oc2ccc(C(C)C)cc2)c(=O)n(-c2ccccc2)n1C` (stereo not given), the inhibition is inactive: 2.2%.

`O=[N+]([O-])c1cc([N+](=O)[O-])c(Nc2ccccn2)c([N+](=O)[O-])c1`: the inhibition is inactive: 27.9%.

Consider `CCc1ccc(OP(C)(=O)O)cc1`, for which the inhibition was inactive: 1.4%.

For the compound `COc1ccccc1OP(C)(=O)Nc1ccc(C)cc1C` (stereo not given), the inhibition was inactive: -3%.

Turning to `CP(=O)(Nc1ccccn1)Oc1ccccc1` (stereo not given), the inhibition was inactive: 5.6%.

`CC(C)c1ccc(OP(C)(=O)Nc2ccc(SC(F)(F)F)cc2)cc1` (stereo not given): the inhibition is inactive: -5.6%.

Consider `CP(=O)(Nc1ccccc1F)Oc1ccccc1` (stereo not given), for which the inhibition is inactive: -4.5%.

As to `O=C(OCCN1CCN(CCOCc2ccccc2)CC1)C(O)(c1ccccc1)c1ccccc1`, the inhibition is inactive: 7.8%.

Regarding `O=C(OC1CN2CCC1CC2)c1ccc([N+](=O)[O-])cc1` (stereo not given), the inhibition was inactive: -10.7%.

As for `COc1ccc2c(c1O)-c1c(O)c(OC)cc3c1[C@H](C2)[N+](C)(C)CC3.O=[N+]([O-])c1cc([N+](=O)[O-])c([O-])c([N+](=O)[O-])c1[O-]`, the inhibition is inactive: 6.5%.

With `COc1ccc(OP(C)(=O)Nc2ccc(SC(F)(F)F)cc2)cc1` (stereo not given), the inhibition is inactive: 6.3%.

As to `CCOC(=O)c1ccc(NP(C)(=O)Oc2ccc(F)cc2)cc1` (stereo not given), the inhibition was inactive: 2.9%.

Turning to `CCN(CC)CCCOC(=O)C(O)(c1ccccc1)C1CCCCC1` (stereo not given), the inhibition was inactive: 4.5%.

In the case of `O=[N+]([O-])c1cc([N+](=O)[O-])c(OC2CCCCC2O)c([N+](=O)[O-])c1` (stereo not given), the inhibition was inactive: 4.5%.

As to `CCCCCOc1ccc(NP(C)(=O)Oc2ccc(Cl)cc2Cl)cc1` (stereo not given), the inhibition was inactive: 3.9%.

Consider `CP(=O)(Nc1ccccc1)Oc1ccc(F)cc1` (stereo not given), for which the inhibition is inactive: 3.5%.

In the case of `COc1ccc(OP(C)(=O)Nc2cccc(Br)c2)cc1` (stereo not given), the inhibition was inactive: 3.9%.

As to `COc1ccc(NP(C)(=O)Oc2ccccc2OC)cc1` (stereo not given), the inhibition is inactive: 8.9%.

Regarding `CN(C)CCOC(=O)C(O)(c1ccccc1)C1CCCCC1` (stereo not given), the inhibition is inactive: -14.4%.

As to `O=[N+]([O-])c1cc([N+](=O)[O-])c(NCC2CCS(=O)(=O)C2)c([N+](=O)[O-])c1` (stereo not given), the inhibition is inactive: 11.2%.

For the compound `CP(=O)(Nc1ccc(SC(F)(F)F)cc1)Oc1ccc(F)cc1` (stereo not given), the inhibition is inactive: 15%.

As for `CCOP(C)(=S)SCC(=O)NC(C)(CC)C(=O)O` (stereo not given), the inhibition is inactive: 2.8%.

As to `CP(=O)(Nc1ccc2c(c1)OCCO2)Oc1ccccc1` (stereo not given), the inhibition was inactive: 4.2%.

With `Cc1ccccc1NP(C)(=O)Nc1ccccc1C`, the inhibition is inactive: -0.4%.

Regarding `O=[N+]([O-])c1cc([N+](=O)[O-])c(-n2nnc3ccccc32)c([N+](=O)[O-])c1`, the inhibition was inactive: -0.7%.

Consider `O=[N+]([O-])c1cc([N+](=O)[O-])c(-c2cnn(-c3ccccc3)c2)c([N+](=O)[O-])c1`, for which the inhibition is inactive: 2%.

`Cc1nc2ccc3ccccc3c2s1.O=[N+]([O-])c1cc([N+](=O)[O-])c(O)c([N+](=O)[O-])c1`: the inhibition is inactive: -8.7%.

Consider `CCOC(=O)C(CC)C1=NC(C)(C)Cc2ccccc21.O=[N+]([O-])c1cc([N+](=O)[O-])c(O)c([N+](=O)[O-])c1` (stereo not given), for which the inhibition is inactive: 5.1%.

`CC1=C2N=C(C=C3N=C(C(C)=C4[N-][C@@](C)([C@@H]5N=C1[C@](C)(CCC(=O)NC[C@@H](C)OP(=O)([O-])O[C@H]1[C@@H](O)[C@@H](n6cnc7cc(C)c(C)cc76)O[C@@H]1CO)[C@H]5CC(N)=O)[C@@](C)(CC(N)=O)[C@@H]4CCC(N)=O)[C@@](C)(CC(N)=O)[C@@H]3CCC(N)=O)C(C)(C)[C@@H]2CCC(N)=O.[C-]#N.[Co+3]`: the inhibition is inactive: 18.1%.

Turning to `O=[N+]([O-])c1cc([N+](=O)[O-])c(Nc2nnnn2CCO)c([N+](=O)[O-])c1`, the inhibition is inactive: 18.6%.

As to `COc1ccccc1OP(C)(=O)Nc1c(C)cccc1C` (stereo not given), the inhibition is inactive: 3.8%.

Consider `CN1CCCCC1COC(=O)C1(O)c2ccccc2CCc2ccccc21` (stereo not given), for which the inhibition is inactive: -2.9%.

As for `CCCOc1ccc(NP(C)(=O)Oc2ccc(Cl)cc2)cc1` (stereo not given), the inhibition is inactive: -3%.

These data come from PubChem BioAssay AID2806 (Sanford-Burnham Center for Chemical Genomics, 2010).
